{"sequences": {"note": "Chains of the proteins cited; added tags and fusions are not shown. Lines headed by an entry give the natural chain unless they say otherwise; changes in a name come on top.", "UniProt P53805": "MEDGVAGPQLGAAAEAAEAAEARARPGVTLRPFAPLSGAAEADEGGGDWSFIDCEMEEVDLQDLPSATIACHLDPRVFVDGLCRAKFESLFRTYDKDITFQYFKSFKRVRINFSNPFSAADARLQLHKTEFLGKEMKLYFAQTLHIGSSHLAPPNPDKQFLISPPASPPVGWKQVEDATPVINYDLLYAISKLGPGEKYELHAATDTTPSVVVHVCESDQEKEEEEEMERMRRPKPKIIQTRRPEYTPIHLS"}, "source": "paper PMC3562396", "biological_target": "epitope-tagged human RCAN1 (RCAN1-HA-Flag) expressed from the BAC transgene (human) (UniProt P53805)", "test": "co-IP"}
{"substance": "calcineurin (CaN) phosphatase, catalytic and regulatory subunits (from UniProt P63328 1-521; Q63810 1-170) (complex)", "values": [{"measurement": "percent of CaN associated with RCAN1", "result": "< 1", "unit": "%"}]}
